# Data as given in patent EP2883881A1, “Cobaltcomplex salts and mixtures of Cobaltcomplex salts for use in DSSC” (dated 2015).
# Experiment: Solubility of the Cobaltcomplex salt in the solvent of the electrolyte formulation
# [1] = solvent gamma-butyrolactone, Table 3
Substance,Solubility [1],"Solubility (solvent 3-methoxypropionitrile, Table 1, without CDCA)"
"[Co(3,3'-dimethoxy-2,2'-bipy)3][N(FSO2)2]2",good,–
"[Co(3,3'-dimethoxy-2,2'-bipy)bipy2][N(FSO2)2]2",good,–
"[Co(3,6'-dimethoxy-2,2'-bipy)3][N(FSO2)2]2",–,good
